In patent publication US10266535B2 (dated 2019):
Like-named read-outs stand apart in the source and are kept apart here.

Protein sequences, listed by entry. Tags and fused reporters are not part of them. Lines headed by an entry give the natural chain unless they say otherwise; changes in a name come on top.
UniProt Q06187: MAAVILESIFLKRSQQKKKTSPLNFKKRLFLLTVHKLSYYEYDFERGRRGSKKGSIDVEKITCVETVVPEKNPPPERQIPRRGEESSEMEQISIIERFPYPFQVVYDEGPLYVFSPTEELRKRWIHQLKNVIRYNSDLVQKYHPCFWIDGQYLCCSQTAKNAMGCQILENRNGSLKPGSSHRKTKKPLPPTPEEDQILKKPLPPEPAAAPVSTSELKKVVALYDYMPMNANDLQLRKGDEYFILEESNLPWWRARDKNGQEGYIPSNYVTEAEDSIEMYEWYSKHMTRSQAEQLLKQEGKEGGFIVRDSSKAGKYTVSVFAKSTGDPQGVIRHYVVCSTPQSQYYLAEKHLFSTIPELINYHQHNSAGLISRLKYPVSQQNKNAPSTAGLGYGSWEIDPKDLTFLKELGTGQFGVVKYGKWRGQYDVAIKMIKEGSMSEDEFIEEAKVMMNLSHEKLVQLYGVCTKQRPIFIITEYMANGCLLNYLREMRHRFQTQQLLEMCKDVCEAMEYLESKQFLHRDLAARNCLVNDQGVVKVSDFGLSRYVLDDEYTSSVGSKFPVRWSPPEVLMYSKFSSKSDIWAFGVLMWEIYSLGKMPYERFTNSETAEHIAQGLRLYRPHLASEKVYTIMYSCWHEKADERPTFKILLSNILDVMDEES

Experiments:
BTK protein kinase = BTK protein kinase (Homo sapiens (Human), UniProt Q06187); experiment: In vitro inhibition activity (enzymatic activity), ADP-Glo, BTK; assay type: biochemical; conditions: read-out: BTK protein kinase IC50; ATP 10 μM
[1] = test system: MV4-11 cell lines carrying FLT3/ITD mutant gene; conditions: 24 hours
[2] = test system: Signaling pathways of FLT3 in MV4-11 and MOLM-14 cell lines; conditions: treated for 4 hours

| SMILES | IC50 (BTK protein kinase) [nM] | number of cells captured in G0-G1 phase ([1]; MV4-11, 0.01 μM) [%] | number of cells captured in G0-G1 phase ([1]; MV4-11, 0.1 μM) [%] | C-Myc (degradation; for AC220 phosphorylation) [2] | phosphorylation of STAT5 [2] | phosphorylation of protein kinase FLT3 [2] |
| --- | --- | --- | --- | --- | --- | --- |
| CS(=O)(=O)NC1CCC(n2nc(-c3ccc(Oc4ccccc4)cc3)c3c(N)ncnc32)CC1 (stereo not drawn) [Compound 78, N-(4-(4-amino-3-(4-phenoxyphenyl)-1H-pyrazolo[3,4-d]pyrimidin-1-yl)cyclohexyl)methanesulfonamide] | 343 | – | – | – | – | – |
| CC(C)(C)c1cc(NC(=O)Nc2ccc(-c3cn4c(n3)sc3cc(OCCN5CCOCC5)ccc34)cc2)no1 [AC220, reference compound] | – | 90.49 | 96.53 | strongly inhibited | strongly inhibited | strongly inhibited |
